Experimental data as given in ChEMBL document CHEMBL1135692, “Structure-activity relationships of the melanocortin tetrapeptide Ac-His-D-Phe-Arg-Trp-NH2 at the mouse melanocortin receptors. 4. Modifications at the Trp position” (J Med Chem, 2002).

Amino acid sequences for entries named in this document (tags omitted). A change or cut given only in a name is not applied to a line headed by its entry.
UniProt Q01727: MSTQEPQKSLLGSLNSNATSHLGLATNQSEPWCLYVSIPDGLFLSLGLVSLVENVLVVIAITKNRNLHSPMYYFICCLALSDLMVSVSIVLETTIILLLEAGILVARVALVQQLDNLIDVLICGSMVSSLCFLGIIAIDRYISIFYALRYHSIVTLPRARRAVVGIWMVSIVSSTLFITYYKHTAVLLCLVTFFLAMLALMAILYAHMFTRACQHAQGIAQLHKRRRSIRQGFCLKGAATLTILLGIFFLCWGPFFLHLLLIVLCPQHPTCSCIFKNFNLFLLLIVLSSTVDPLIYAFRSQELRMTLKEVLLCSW

Biological target: Melanocyte-stimulating hormone receptor (Mus musculus, UniProt Q01727)
Experiment: Activity in mouse melanocortin-1 receptor stably expressed in HEK293 cells
Format: cell-based

- EC50: 0.0201 µM
Structure (SMILES): CC(=O)N[C@@H](Cc1cnc[nH]1)C(=O)NC(Cc1ccccc1)C(=O)N[C@@H](CCCNC(=N)N)C(=O)NC(Cc1c[nH]c2ccccc12)C(N)=O (stereo in doubt)
